Publication PMC9705075, “In Vitro characterization of the endocrine disrupting effects of per- and poly-fluoroalkyl substances (PFASs) on the human androgen receptor” (Journal of hazardous materials, 2022)

Test system: intracellular AR protein in VCaP cells
Experiment: Immunoblotting of intracellular AR protein in VCaP cells
Assay type: cell-based, human
Conditions: 10% FBS, 1 μM enzalutamide, 48 h
Method: Cells were plated at a density of 2.0 × 10^6 cells/well in 6-well plates (CellStar, Monroe, NC) and incubated 24 h.
Values are expressed as the mean fold change ± S.E.M. from three independent experiments.

How did the “cellular AR levels, normal conditions” value turn out when `CNC(=O)c1ccc(N2C(=S)N(c3ccc(C#N)c(C(F)(F)F)c3)C(=O)C2(C)C)cc1F` [enzalutamide, Enzalutamide, reference compound] was run?
Its value is “significantly lowered cellular AR levels”.
